Patent US10933032B2, “Methods for the treatment of cancer using coenzyme Q10 combination therapies” (Berg LLC, priority 2013, dated 2021)

Assays:
[1] = system: MDA-MB231 breast cancer cells
[2] = system: Human pancreatic cancer cells (PcCa2); assay: Number of viable cells, CoQ10 pretreatment or cotreatment with gemcitabine (Example 18); format: cell-based; conditions: pretreated with 100 μM CoQ10 followed by gemcitabine (0.1, 1 and 5 μM), *p<0.05, FIG. 26
Protocol: Human pancreatic cancer cells (PcCa2) were pretreated with 100 μM CoQ10 followed by treatment with gemcitabine (0.1, 1 and 5 μM), or cotreated with CoQ10 and gemcitabine.

[3] = system: SKBR-3 breast cancer cells; conditions: 100 μM CoQ10 for 72-96 hours, FIG. 18
[4] = system: MDA-MB213 breast cancer cells; assay: Caspase 3 activity; format: cell-based; conditions: 100 μM CoQ10 for 72-96 hours, FIG. 18
[5] = system: SK-Br3 breast cancer cells; assay: In vitro cell viability / viable cell number; format: cell-based, Human
Protocol: Cell lines (e.g., MIAPaCa-2, Hep3B, and/or SK-Br3) cell lines were maintained in culture using standard culture conditions for each cell line. Cells were treated with CoQ10 or the indicated chemotherapeutic agents at the indicated concentrations for the indicated times. After the predetermined incubation time, the cells were stained to distinguish between viable and non-viable cells using routine methods. Cells were counted by microscopy or flow cytometry. The number of cells after treatment were normalized to the number of cells in the untreated sample.
Specifically, to assess the efficacy of CoQ10 in combination with gemcitabine in vitro, MIAPaCa-2 pancreatic carcinoma cells were maintained in culture and exposed to increasing concentrations of gemcitabine in combination with CoQ10, the 4% CoQ10 intravenous formulation, or the excipient of the CoQ10 intravenous formulation. […] The combination treatment with gemcitabine and the 4% CoQ10 intravenous formulation results in an increase in cell death as compared to gemcitabine treatment alone.
To assess the efficacy of CoQ10 in combination with doxorubicin in vitro, MIAPaCa-2 pancreatic carcinoma cells were maintained in culture and exposed to increasing concentrations of gemcitabine in combination with CoQ10, the 4% CoQ10 intravenous formulation, or the excipient of the CoQ10 intravenous formulation. […]

[6] = system: SKBR-3 breast cancer cells; assay: Reactive oxygen species (ROS) production; format: cell-based; conditions: 100 μM CoQ10 for 24 hours, FIG. 17

Compound: COC1=C(OC)C(=O)C(C/C=C(\C)CC/C=C(\C)CC/C=C(\C)CC/C=C(\C)CC/C=C(\C)CC/C=C(\C)CC/C=C(\C)CC/C=C(\C)CC/C=C(\C)CCC=C(C)C)=C(C)C1=O [CoQ10, Coenzyme Q10]
- Number of viable cells compared to chemotherapeutic agents [1]: significant decreases in viable breast cancer cells
- Number of viable cells compared to gemcitabine alone, pretreatment [2]: significantly decreased the number of viable cells
- Caspase 3 activity vs untreated [3]: increased caspase 3 activity
- Caspase 3 activity vs untreated [4]: increased caspase 3 activity
- Number of viable cells compared to chemotherapeutic agents [5]: significant decreases in viable breast cancer cells
- ROS production [6]: increased ROS production
